Measurements from patent US5453488A, “Amino-substituted heterocycles as renin inhibitors” (Warner-Lambert Company, priority 1993, dated 1995).

Sequences of proteins named here, by UniProt entry; tags and fusion partners are left off. Residues count along the entry.
UniProt P00797, 67-406 limits assumed: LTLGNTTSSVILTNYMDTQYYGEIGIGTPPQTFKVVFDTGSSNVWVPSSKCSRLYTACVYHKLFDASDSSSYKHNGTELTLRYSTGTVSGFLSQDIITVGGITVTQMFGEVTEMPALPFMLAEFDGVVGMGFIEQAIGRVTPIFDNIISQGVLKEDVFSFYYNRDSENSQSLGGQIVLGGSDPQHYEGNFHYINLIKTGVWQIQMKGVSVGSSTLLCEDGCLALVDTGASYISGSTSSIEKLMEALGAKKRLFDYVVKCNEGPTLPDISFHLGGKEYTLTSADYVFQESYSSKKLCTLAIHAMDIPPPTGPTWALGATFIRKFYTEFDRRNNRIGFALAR

Assays:
[1] = molecular target: renin (Homo sapiens, UniProt P00797); assay: In vitro renin inhibition, radioimmunoassay for angiotensin I; type: biochemical; conditions: renin with angiotensinogen, 2 hours at 37° C.
[2] = system: chymotrypsin; assay: In vitro chymotrypsin stability
[3] = system: unanesthetized, sodium-deplete, normotensive Rhesus or Cynomolgus monkeys; assay: In vivo blood pressure lowering in conscious sodium-deplete monkeys

For `O=C(Nc1nc(C[C@H](NC(=O)[C@H](Cc2ccccc2)NS(=O)(=O)N2CCOCC2)C(=O)N[C@@H](CC2CCCCC2)C(O)C(F)(F)C(=O)NCCN2CCOCC2)cs1)OCc1ccccc1` (stereo partly shown), which IC50 [1] is on record?
Its IC50 is 164 nM.

Which results are given for `CC(C)C[C@H](O)[C@H](O)[C@H](CC1CCCCC1)NC(=O)[C@H](Cc1csc(N)n1)NC(=O)[C@H](Cc1ccccc1)NS(=O)(=O)N1CCOCC1` (single isomer, unassigned)?
Percent Parent Remaining (3 hrs) Buffer + chymotrypsin [2]: 100%; Percent Parent Remaining (3 hrs) Buffer only [2]: 100%; mm Hg drop in mean B.P. at 1 hr ([3]; PO 10 mg/kg): 14 mm Hg; mm Hg drop in mean B.P. at 2 hr ([3]; PO 10 mg/kg): 20 mm Hg; mm Hg drop in mean B.P. at 4 hr ([3]; PO 10 mg/kg): 15 mm Hg; mm Hg drop in mean B.P. at 6 hr ([3]; PO 10 mg/kg): 12 mm Hg; mm Hg drop in mean B.P. Max ([3]; PO 10 mg/kg): 23 mm Hg; mm Hg drop in mean B.P. at 1 hr ([3]; PO 30 mg/kg): 30 mm Hg; mm Hg drop in mean B.P. at 2 hr ([3]; PO 30 mg/kg): 34 mm Hg; mm Hg drop in mean B.P. at 4 hr ([3]; PO 30 mg/kg): 29 mm Hg; mm Hg drop in mean B.P. at 6 hr ([3]; PO 30 mg/kg): 29 mm Hg; mm Hg drop in mean B.P. Max ([3]; PO 30 mg/kg): 38 mm Hg

With `CC(C)C[C@H](O)[C@H](O)[C@H](CC1CCCCC1)NC(=O)[C@H](CCc1csc(N)n1)NC(=O)[C@H](Cc1ccccc1)NS(=O)(=O)N1CCOCC1` as the molecule, how does the IC50 [1] read?
The IC50 was 15.3 nM.

With `CC(C)C[C@H](O)[C@H](O)[C@H](CC1CCCCC1)NC(=O)C(NC(=O)[C@H](Cc1ccccc1)NS(=O)(=O)N1CCOCC1)c1csc(N)n1` (stereo partly shown) as the molecule, how does the IC50 [1] read?
The IC50 was 0.58 nM.

For `COc1ccc(C[C@H](NS(=O)(=O)N2CCOCC2)C(=O)NC(Cc2csc(N)n2)C(=O)N[C@@H](CC2CCCCC2)[C@@H](O)[C@@H](O)CC(C)C)cc1` (single isomer, unassigned), which IC50 [1] is on record?
The IC50 was 0.34 nM.

And the “Percent Parent Remaining (3 hrs) Buffer + chymotrypsin” value [2]?
The value was 100%.

What about the “Percent Parent Remaining (3 hrs) Buffer only” value [2] of the same molecule?
The value was 100%.

Which IC50 [1] does the source give for `Nc1nc(C[C@H](NC(=O)[C@H](Cc2ccccc2)NS(=O)(=O)N2CCOCC2)C(=O)N[C@@H](CC2CCCCC2)[C@@H](O)CC(=O)NCCN(CCO)CCO)cs1` here?
The IC50 was 3.6 nM.
